{
  "source": "patent US11001745B2",
  "about": "“Hydrocarbon recovery composition, method, and system” (THE SASKATCHEWAN RESEARCH COUNCIL, priority 2016, dated 2021)",
  "experiment": "Thermal stability",
  "assay_type": "physicochemical",
  "conditions": "a few days",
  "data": [
    {"substance": "octyl phenol ethoxylate [OPE, reference compound]", "values": [
      {"measurement": "Stability in water at high temperatures", "value": "partly decomposed"}
    ]}
  ]
}
